Results from ChEMBL document CHEMBL1135868, “Small ligands interacting with the phosphotyrosine binding pocket of the Src SH2 protein” (Bioorg Med Chem Lett, 2002).

The chains behind the UniProt entries cited, without tags or fusion partners. Where a name states a change or a piece, a line headed by the entry shows the natural chain unless it says otherwise.
UniProt P12931: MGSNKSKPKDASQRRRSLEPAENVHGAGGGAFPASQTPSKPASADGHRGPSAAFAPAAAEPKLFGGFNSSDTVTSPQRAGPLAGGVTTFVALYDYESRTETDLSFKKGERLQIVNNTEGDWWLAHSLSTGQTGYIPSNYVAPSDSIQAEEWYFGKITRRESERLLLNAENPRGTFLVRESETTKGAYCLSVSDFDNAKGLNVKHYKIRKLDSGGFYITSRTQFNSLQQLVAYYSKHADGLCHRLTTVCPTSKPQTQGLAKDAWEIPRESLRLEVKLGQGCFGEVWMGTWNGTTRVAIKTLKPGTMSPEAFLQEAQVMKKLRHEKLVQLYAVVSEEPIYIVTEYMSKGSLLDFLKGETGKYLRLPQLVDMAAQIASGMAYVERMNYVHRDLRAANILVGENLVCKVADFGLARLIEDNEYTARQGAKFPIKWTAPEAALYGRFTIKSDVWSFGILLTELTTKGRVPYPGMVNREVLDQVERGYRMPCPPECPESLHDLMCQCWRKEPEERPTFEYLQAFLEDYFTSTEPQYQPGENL

Target: Proto-oncogene tyrosine-protein kinase Src (Homo sapiens, UniProt P12931)
Assay: The compound was evaluated for its binding affinity towards phosphotyrosine binding pocket of Src protein tyrosine kinase SH2 domain

SMILES: CCc1ccc(NC(=O)P(=O)(O)O)cc1
- IC50: 4.4 mM
